Results published in ChEMBL document CHEMBL4627396 (J Med Chem, 2020).

By UniProt entry, the sequences of proteins in these tests, tags left out. Where a name states a change or a piece, a line headed by the entry shows the natural chain unless it says otherwise.
UniProt Q8IU85: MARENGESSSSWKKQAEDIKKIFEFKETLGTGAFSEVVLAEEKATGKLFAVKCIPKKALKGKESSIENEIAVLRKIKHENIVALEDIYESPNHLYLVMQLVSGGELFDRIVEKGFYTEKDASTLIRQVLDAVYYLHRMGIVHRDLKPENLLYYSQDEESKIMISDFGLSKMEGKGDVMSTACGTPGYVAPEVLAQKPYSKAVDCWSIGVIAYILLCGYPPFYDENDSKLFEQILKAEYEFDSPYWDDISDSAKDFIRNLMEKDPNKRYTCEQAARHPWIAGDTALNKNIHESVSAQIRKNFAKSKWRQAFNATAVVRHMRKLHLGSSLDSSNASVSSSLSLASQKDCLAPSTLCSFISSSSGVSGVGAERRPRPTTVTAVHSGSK
UniProt O43293: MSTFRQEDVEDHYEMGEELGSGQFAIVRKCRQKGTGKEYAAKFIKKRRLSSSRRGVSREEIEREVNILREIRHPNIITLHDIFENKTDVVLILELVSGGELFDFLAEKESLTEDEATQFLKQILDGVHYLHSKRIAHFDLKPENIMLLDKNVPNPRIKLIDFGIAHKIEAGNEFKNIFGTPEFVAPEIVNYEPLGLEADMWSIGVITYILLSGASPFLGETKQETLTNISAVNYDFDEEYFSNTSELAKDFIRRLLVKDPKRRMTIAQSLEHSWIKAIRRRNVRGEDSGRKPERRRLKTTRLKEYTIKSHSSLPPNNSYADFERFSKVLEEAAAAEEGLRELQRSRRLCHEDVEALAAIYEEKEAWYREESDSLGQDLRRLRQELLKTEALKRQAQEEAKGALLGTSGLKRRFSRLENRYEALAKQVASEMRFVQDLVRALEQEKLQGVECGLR

Columns and labels:
[1] = target: Calcium/calmodulin-dependent protein kinase type 1D (Homo sapiens) (UniProt Q8IU85)
[2] = target: Death-associated protein kinase 3 (Homo sapiens) (UniProt O43293); conditions: 10 uM
[3] = target: T1, Calcium/calmodulin-dependent protein kinase type IV (Homo sapiens) (UniProt Q16566); conditions: 10 uM
T1 sequence (whole entry): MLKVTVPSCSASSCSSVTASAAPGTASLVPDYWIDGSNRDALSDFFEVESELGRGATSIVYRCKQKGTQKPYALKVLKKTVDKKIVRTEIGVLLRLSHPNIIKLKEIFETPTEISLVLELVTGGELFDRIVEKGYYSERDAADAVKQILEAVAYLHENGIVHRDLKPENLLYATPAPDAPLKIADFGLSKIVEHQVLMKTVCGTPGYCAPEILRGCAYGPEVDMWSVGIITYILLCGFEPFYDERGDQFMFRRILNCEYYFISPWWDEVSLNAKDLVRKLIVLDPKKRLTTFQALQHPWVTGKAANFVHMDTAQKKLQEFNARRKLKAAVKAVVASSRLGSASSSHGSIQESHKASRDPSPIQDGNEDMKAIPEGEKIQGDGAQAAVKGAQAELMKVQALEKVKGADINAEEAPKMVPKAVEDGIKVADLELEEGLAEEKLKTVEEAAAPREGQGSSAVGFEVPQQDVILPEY

Row | Structure (SMILES) | ΔTm [1] | ΔTm [2] | ΔTm [3]
1 | CNC(=O)c1cnc(NCCN)nc1Nc1cccc(C(F)(F)F)c1 | 0.12 °C | 1.36 °C | 
2 | CN(C)CCN(C)c1ncc(C(N)=O)c(Nc2cccc(C(F)(F)F)c2)n1 | 4.68 °C | 3.45 °C | 2.21 °C
3 | CNCCN(C)c1ncc(C(N)=O)c(Nc2cccc(C(F)(F)F)c2)n1 | 2.43 °C |  | 3.36 °C
